These are literature values, as cited in paper PMC8908504, “Modifications of the Triaminoaryl Metabophore of Flupirtine and Retigabine Aimed at Avoiding Quinone Diimine Formation” (ACS Omega, 2022).

This series relates to TAMH cells. To be noted: MTT assay, 24 h exposure; cited from earlier work. For orientation: Tetrazolium dyes change colour on reduction, which living cells bring about.

Marks after values point to notes of the source that are not given here.

As to `CCOC(=O)Nc1ccc(NCc2ccc(F)cc2)cc1N` [compound 2, retigabine], the LD25 is listed as >400 ^f μM.
